Earlier results on one substance are cited in US6509371B1, “Compositions containing Bergamottin for increasing the oral bioavailability of pharmaceutical agents” (Warner-Lambert Company, priority 1997, dated 2003).

The chains behind the UniProt entries cited, without tags or fusion partners.
UniProt P08684, whole entry: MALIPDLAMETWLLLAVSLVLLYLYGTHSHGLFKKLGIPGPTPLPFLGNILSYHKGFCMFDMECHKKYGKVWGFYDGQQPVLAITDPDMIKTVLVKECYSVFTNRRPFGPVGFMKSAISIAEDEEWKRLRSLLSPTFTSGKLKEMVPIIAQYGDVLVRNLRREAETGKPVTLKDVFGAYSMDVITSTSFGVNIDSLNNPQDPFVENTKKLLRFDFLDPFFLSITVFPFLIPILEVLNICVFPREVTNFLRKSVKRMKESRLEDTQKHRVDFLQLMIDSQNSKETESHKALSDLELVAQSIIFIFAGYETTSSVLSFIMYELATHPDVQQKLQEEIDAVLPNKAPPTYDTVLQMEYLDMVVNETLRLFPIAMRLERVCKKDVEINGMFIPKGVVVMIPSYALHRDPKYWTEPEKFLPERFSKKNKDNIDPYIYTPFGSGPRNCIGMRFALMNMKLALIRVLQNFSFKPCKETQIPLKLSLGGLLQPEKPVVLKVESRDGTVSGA

Data set [1] concerns the target P450 3A4 (Homo sapiens, UniProt P08684). Particulars: in vivo; cited from earlier work.
The conditions of data set [2]: cited from earlier work.

For the substance Medroxyprogesterone, the “Fraction Metabolized” value in data set [1] was over 90%. In addition, the “Oral Bioavailability” value in data set [2] was under 20%.
